From ChEMBL document CHEMBL3585325, “Discovery of (1R,2S)-2-{[(2,4-Dimethylpyrimidin-5-yl)oxy]methyl}-2-(3-fluorophenyl)-N-(5-fluoropyridin-2-yl)cyclopropanecarboxamide (E2006): A Potent and Efficacious Oral Orexin Receptor Antagonist” (J Med Chem, 2015) come the findings set out here.

Sequences of proteins named here, by UniProt entry; tags and fusion partners are left off.
UniProt O43614, whole entry: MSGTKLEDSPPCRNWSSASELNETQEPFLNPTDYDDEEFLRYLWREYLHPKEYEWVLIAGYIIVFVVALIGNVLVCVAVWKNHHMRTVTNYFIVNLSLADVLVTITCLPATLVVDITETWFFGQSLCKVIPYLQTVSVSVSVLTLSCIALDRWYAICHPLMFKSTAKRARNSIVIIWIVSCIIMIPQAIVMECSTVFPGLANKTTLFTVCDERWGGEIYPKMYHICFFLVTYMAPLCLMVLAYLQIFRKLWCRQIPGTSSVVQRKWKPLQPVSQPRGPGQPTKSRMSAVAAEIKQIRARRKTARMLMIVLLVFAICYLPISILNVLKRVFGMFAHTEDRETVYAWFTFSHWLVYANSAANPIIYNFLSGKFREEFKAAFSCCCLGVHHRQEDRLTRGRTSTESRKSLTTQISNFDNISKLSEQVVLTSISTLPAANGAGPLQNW

The target of data set [1] is T1, Orexin receptor type 2 (Homo sapiens, UniProt O43614). Nature of the data set: Binding affinity to human OX2R by radioligand displacement binding assay. The method, boiled down:
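Ki values come from single experiments run in triplicate.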
On the technique in general: Displacement assays read how much labelled ligand stays bound in the presence of the test substance.

A short description of data set [2]: Activity at P-gp (unknown origin) assessed as corrected flux ratio. Particulars: human. It counts as ADME. The method, boiled down: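 Reported as corrected flux ratio, i.e. the MDR1 flux ratio divided by the PK1 flux ratio.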
Data set [3] addresses T1, Orexin receptor type 2.

As to `Cc1ncc(OC[C@@]2(c3cccc(F)c3)C[C@H]2C(=O)Nc2ccc(F)cn2)c(C)n1` [LEMBOREXANT], the Ki (commonly the dissociation constant of the complex between target and ligand, obtained from inhibition or displacement) on Orexin receptor type 2 [1] was 3 nM; at Orexin receptor type 2 [3] it was 0.44 nM. Also, in data set [2], the Ratio stood at 1.6.
